Experimental data as given in patent publication US20080233589A1 (WASHINGTON UNIVERSITY IN ST LOUIS, published 2008).

Target: C-terminal fragment (residues 395-542) of click beetle green 99 luciferase fused to FKBP (Pyrophorus plagiophthalmus; human) (UniProt P62942)
Assay: cell-based or functional assay

Substance: FRB fused to the N-terminal fragment (residues 2-413) of click beetle green 99 luciferase (from UniProt P42345 2024-2113)
- rapamycin-dependent induction (fold induction of bioluminescence): 75 fold
